25 molecules from PubChem BioAssay AID1259313 (Sanford-Burnham Center for Chemical Genomics, 2017) can be followed below.

The entries are a selection whose mix differs from that of the whole data set. Some tests of the compounds listed are not included; inactive here does not mean inactive elsewhere. Activity calls are given as the source filed them.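 The calls were made as follows: active = melting temperature shift of at least 10% of the positive control shift, at one fixed dose; inactive = the rest.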

The test system of the test is Glutamate receptor ionotropic, NMDA 3A (GRIN3A) ligand-binding domain. The experiment in a line: NR3A LBD thermal stabilization by compounds – biophysical, differential scanning fluorimetry, uHTS, primary screen (AID 1259313). The settings on record: at 25 µM, active compounds read high, 0% = protein alone, 100% = glycine-bound protein. (In general: Differential scanning fluorimetry follows unfolding on heating by fluorescence.)
With `Cc1ccccc1C(=O)NCC1(N2CCCCC2)CCCCC1`, the Tm shift relative to glycine control is inactive: -0.93%. As to `CN(C)c1ccc(C(=O)NCC2(N(C)C)CCCCC2)cc1`, the Tm shift relative to glycine control is inactive: -2.23%. To `CN(C)C1CCCC1OC(=O)C(O)(c1ccccc1)c1ccccc1` (stereo not given) belongs inactive: 0.38%; to `CCN1CCCC(OC(=O)C2(O)c3ccccc3C=Cc3ccccc32)C1` (stereo not given), inactive: -0.67%; to `Cc1cc(C(=O)NCC2(N3CCCCC3)CCCCC2)ccc1[N+](=O)[O-]`, inactive: 0.97%. The value for `O=C(NCC1(N2CCCCC2)CCCCC1)c1cccc(Br)c1` was inactive: -1.01%; that for `COc1ccc(C(=O)NCC2(N(C)C)CCCCC2)cc1` was inactive: 0.86%.

As for `C=CCN1CCN(CCOC(=O)C(O)(c2ccccc2)c2ccccc2)CC1`, the Tm shift relative to glycine control was inactive: -2.3%. For `O=C(NCC1(N2CCCCC2)CCCCC1)c1cc(F)c(F)cc1Cl`, the Tm shift relative to glycine control was inactive: -1.48%. For the molecule `CN1[C@@H]2CC[C@H]1CC(OC(=O)C(O)(c1ccccc1)c1ccccc1)C2` (stereo not given in full), the Tm shift relative to glycine control is inactive: -0.52%. The value for `O=C(NCC1(N2CCCCC2)CCCCC1)c1cc([N+](=O)[O-])ccc1Cl` was inactive: -1.67%. As to `Cc1ccc(C(=O)NCC2(N3CCCCC3)CCCCC2)cc1`, the Tm shift relative to glycine control was inactive: -0.8%. Regarding `CC(C)N1C(=O)CC2(CCN(CCOC(=O)C(O)(c3ccccc3)c3ccccc3)CC2)C1=O`, the Tm shift relative to glycine control is inactive: 1.16%. To `CCN(CC)CC(C)C(C)OC(=O)C(O)(c1ccccc1)c1ccccc1` (stereo not given) belongs inactive: -1.68%.

Consider `COc1cc(SC)ccc1C(=O)NCC1(N(C)C)CCCCC1`, for which the Tm shift relative to glycine control was inactive: -0.29%.

For `O=C(OC1CN2CCC1CC2)C(CO)(c1ccccc1)c1ccccc1` (stereo not given), the Tm shift relative to glycine control was inactive: 0.05%.

In the case of `CN(C)c1cccc(C(=O)NCC2(N(C)C)CCCCC2)c1`, the Tm shift relative to glycine control is inactive: -0.24%.

With `CC(C)Oc1ccc(C(=O)NCC2(N(C)C)CCCCC2)cc1`, the Tm shift relative to glycine control is inactive: -2.23%. The value for `O=C(OCCN1CCCC1)C(O)(c1ccccc1)c1ccccc1` was inactive: 0.42%; that for `COc1ccc(Br)c(C(=O)NCC2(N3CCCCC3)CCCCC2)c1` was inactive: -0.69%. On to `COc1cc(C(=O)NCC2(N(C)C)CCCCC2)c([N+](=O)[O-])cc1OC`, for which the Tm shift relative to glycine control is inactive: 0.18%.

In the case of `CN(C)C1(CNC(=O)c2ccc(Br)cc2)CCCCC1`, the Tm shift relative to glycine control is inactive: -0.4%. With `O=C(NCC1(N2CCCCC2)CCCCC1)c1cccc(Cl)c1`, the Tm shift relative to glycine control was inactive: 0.95%.

Consider `COc1cccc(C(=O)NCC2(N3CCCCC3)CCCCC2)c1`, for which the Tm shift relative to glycine control was inactive: 2.38%. The value for `COc1ccc(Cl)cc1C(=O)NCC1(N(C)C)CCCCC1` was inactive: -0.74%.
